Results: ChEMBL document CHEMBL5550116, “Discovery of novel macrocyclic derivatives as potent and selective cyclin-dependent kinase 2 inhibitors” (Bioorg Med Chem, 2024)

Chains of the proteins cited; added tags and fusions are not shown. Lines headed by an entry give the natural chain unless they say otherwise; changes in a name come on top.
UniProt P50750, whole entry: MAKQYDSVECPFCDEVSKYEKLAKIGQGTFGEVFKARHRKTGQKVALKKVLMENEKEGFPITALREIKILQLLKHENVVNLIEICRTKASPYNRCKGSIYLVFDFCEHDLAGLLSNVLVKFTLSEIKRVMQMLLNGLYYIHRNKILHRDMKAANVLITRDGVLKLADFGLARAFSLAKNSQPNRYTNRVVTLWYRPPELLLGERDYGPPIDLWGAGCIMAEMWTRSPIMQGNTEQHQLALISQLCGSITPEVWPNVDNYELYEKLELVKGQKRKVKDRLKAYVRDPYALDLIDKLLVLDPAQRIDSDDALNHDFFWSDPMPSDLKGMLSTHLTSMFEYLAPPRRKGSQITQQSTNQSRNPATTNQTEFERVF
UniProt Q00535, whole entry: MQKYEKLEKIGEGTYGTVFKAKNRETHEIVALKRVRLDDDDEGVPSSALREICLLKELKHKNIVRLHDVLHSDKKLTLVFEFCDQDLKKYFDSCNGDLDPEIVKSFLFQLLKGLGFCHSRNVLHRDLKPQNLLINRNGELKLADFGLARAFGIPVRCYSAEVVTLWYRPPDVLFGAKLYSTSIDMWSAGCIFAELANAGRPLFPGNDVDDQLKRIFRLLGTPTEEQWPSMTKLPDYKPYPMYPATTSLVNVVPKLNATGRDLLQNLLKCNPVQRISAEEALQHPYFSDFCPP
UniProt P50613: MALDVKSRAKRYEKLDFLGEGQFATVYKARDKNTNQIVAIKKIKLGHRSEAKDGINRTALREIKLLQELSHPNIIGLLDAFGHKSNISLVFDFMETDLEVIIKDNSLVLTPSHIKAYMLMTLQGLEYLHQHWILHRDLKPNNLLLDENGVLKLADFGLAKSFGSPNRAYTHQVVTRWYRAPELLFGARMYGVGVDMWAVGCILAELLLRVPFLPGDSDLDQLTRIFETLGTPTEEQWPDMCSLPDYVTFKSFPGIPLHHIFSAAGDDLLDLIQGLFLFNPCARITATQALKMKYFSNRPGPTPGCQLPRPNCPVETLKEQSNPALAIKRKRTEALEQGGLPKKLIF

Tests used:
CDK9/cyclin T1 = CDK9/cyclin T1 (Homo sapiens, UniProt P50750); assay: Inhibition of full-length recombinant N-terminal GST-tagged human CDK9 (1 to 372 residues)/His-tagged cyclinT1 (1 to 726 residues) expressed in baculovirus expression system using histone H1 as substrate preincubated for 10 mins followed by substrate and ATP addition and measured after 60 mins by ADP-Glo reagent based microplate reader assay
[1] = molecular target: Cyclin-dependent kinase 5/CDK5 activator 1 (Homo sapiens, UniProt Q00535); assay: Inhibition of human CDK5/p25NCK using histone H1 as substrate preincubated for 10 mins followed by substrate and ATP addition and measured after 60 mins by ADP-Glo reagent based microplate reader assay; type: protein-complex assay
CDK7/Cyclin H/MNAT1 = CDK7/Cyclin H/MNAT1 (Homo sapiens, UniProt P50613); assay: Inhibition of recombinant human His-tagged CDK7/cyclin H/MNAT1 expressed in baculovirus expression system using histone H1 as substrate preincubated for 10 mins followed by substrate and ATP addition and measured after 60 mins by ADP-Glo reagent based microplate reader assay

Work on `CC(C)c1cnn2c3nc(nc12)N(CC1CNC1)CCCCCOc1cc(S(C)(=O)=O)ccc1CN3` yielded a Ki (CDK9/cyclin T1) of 12.8 nM, a Ki [1] of 15.8 nM and a Ki (CDK7/Cyclin H/MNAT1) of 54.7 nM.
